The structures appear in SMILES notation. Some results are limits rather than exact numbers.

Amino acid sequences for entries named in this document (tags omitted).
UniProt Q9WTR4, entry or part of it: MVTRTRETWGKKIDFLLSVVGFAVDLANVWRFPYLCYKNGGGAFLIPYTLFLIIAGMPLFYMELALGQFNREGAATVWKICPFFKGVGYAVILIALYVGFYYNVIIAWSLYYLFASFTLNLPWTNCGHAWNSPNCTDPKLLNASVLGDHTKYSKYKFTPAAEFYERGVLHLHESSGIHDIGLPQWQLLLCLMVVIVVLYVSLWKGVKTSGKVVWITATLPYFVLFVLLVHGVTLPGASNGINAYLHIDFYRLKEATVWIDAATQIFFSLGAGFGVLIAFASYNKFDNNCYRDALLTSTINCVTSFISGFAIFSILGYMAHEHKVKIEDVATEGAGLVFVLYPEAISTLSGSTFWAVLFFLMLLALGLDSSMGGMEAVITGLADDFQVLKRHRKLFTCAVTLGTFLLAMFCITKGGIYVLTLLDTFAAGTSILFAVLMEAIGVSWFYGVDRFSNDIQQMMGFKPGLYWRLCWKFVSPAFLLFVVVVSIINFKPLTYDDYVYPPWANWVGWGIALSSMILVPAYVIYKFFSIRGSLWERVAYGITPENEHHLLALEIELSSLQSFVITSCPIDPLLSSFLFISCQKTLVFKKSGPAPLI
UniProt P23977, whole entry: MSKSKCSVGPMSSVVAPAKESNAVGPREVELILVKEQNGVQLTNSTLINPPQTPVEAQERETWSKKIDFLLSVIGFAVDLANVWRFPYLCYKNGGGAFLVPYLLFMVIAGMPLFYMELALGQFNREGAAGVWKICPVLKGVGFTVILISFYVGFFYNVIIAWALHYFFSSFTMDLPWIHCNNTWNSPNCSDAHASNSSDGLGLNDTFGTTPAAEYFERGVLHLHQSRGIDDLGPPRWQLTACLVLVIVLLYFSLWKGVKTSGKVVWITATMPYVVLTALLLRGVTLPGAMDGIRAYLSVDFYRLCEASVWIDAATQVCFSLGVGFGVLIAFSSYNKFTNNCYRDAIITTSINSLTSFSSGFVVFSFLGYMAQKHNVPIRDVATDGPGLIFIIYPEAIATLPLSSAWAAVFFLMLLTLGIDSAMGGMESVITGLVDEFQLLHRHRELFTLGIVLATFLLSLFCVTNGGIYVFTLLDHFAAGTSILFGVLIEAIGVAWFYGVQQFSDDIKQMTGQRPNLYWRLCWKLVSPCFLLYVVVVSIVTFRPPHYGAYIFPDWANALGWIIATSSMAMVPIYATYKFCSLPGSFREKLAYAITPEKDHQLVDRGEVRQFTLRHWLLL

One experiment has as its target NET (Rattus norvegicus (Rat), UniProt Q9WTR4). Kind of experiment: Norepinephrine Transporter Binding Assay ([3H]Nisoxetine, rat frontal cortex membranes).
In a further experiment the target is DAT (Rattus norvegicus (Rat), UniProt P23977). The experiment is described as follows: Dopamine Transporter Binding Assay ([3H]WIN 35428, rat striatal membranes). The conditions noted are these: selectivity ratio of Ki values, rat brain membranes.

In turn, `NC(=O)C[S+]([O-])C(c1ccccc1)c1ccccc1` (racemic) [(±)-modafinil, 2-[(diphenylmethyl)sulfinyl]acetamide, reference compound] gave a Ki at NET of over 100 µM.

Consider `NC(=O)CSC(c1cccc(Cl)c1)c1cccc(Cl)c1` [Compound 2e, 2-((Bis(3-chlorophenyl)methyl)thio)acetamide], for which, at DAT, the NET/DAT is at least 123.

Turning to `CCCCNCC[S+]([O-])C(c1ccccc1)c1ccccc1` (stereo not shown) [Compound 5b, N-(2-(benzhydrylsulfinyl)ethyl)butan-1-amine], the SERT/DAT on DAT is listed as 41.

At NET, `O=C(CSC(c1ccccc1)c1ccccc1)N1CCN(CCCc2ccccc2)CC1` [Compound 11a, 2-(Benzhydrylthio)-1-(4-(3-phenylpropyl)piperazin-1-yl)ethan-1-one] showed a Ki of 22.6 ± 3.01 µM.

The record behind these values is US10913711B2, “Potent and selective inhibitors of monoamine transporters; method of making; and use thereof” (priority 2013, dated 2021).
